{"source": "patent EP3733658B1", "about": "“PRENYLATED BENZOPYRANES AS PPAR AGONISTS” (Universitat de València, priority 2017, dated 2019)", "system": "ob/ob mice", "assay": "Treatment of ob/ob mice: blood glucose", "settings": "mouse, in vivo, 10 mg/kg/day", "from_the_text": "[…]. […] […].", "data": [{"smiles": "CN(CCOc1ccc(CC2SC(=O)NC2=O)cc1)c1ccccn1", "note": "(stereo not drawn) [Rosiglitazone, rosiglitazone, reference compound]", "values": [{"measurement": "glucose blood level, day 0 (before treatment)", "result": 217, "unit": "mg/dL"}, {"measurement": "glucose blood level after 4 days", "setting": "po", "result": 135, "unit": "mg/dL"}, {"measurement": "reduction of glucose blood levels compared to day 0", "setting": "po", "result": 32, "unit": "%"}]}]}
